Laboratory results as given in patent US20210015850A1, “COMPOSITION FOR IMPROVING INTESTINAL BARRIER FUNCTION” (SUNTORY HOLDINGS LIMITED, priority 2017, published 2021).

Test system: Caco-2 cells
Assay: Intestinal barrier function improvement: suppression of cytokine-induced TEER reduction in Caco-2 monolayer
Type: cell-based, human
Procedure: Caco-2 cells were cultured for three weeks at 37° C. in Transwell (manufactured by Millicell Corporation) using DMEM (Dulbecco's modified Eagle's medium). A medium was removed from a plate of cultured Caco-2 cells, and the well was washed 3 times with serum-free DMEM. The well was filled with the medium. Then, the transepithelial electrical resistance (TEER) of Caco-2 monolayer cells was measured by Millicell-ERS (manufactured by Millipore Corporation). Cells (TEER≥1000 Ω·cm^2) determined that a sufficient tight junction was formed were selected, and used for the next screening. Then, to test solutions (media) on both apical and basolateral membrane sides, a sample, TNFα (40 ng/mL), IL-1β (20 ng/mL), and IFNγ (10 ng/mL) were added, followed by cultivating for 48 hours. […] After the cultivation, TEER was measured again, to evaluate whether the sample suppressed the reduction (decrease) of TEER due to the inflammatory cytokine.
The TEER reduction suppression ratio (%) due to the sample was determined according to the following formula from the TEER values of the well to which the sample was added, normal, and control. […]
The intestinal barrier function improvement action was evaluated by the same method (the method for evaluating intestinal barrier function improvement action described in Example 4) as that in Example 4. […]

Substance: Catechin gallate
- Relative value of TEER reduction suppression ratio of gallate type compound (non-gallate type compound taken as 1) (10 μM, gallate vs non-gallate in the same evaluation): 2.7
- TEER reduction suppression ratio (%) (sample 10 μM, TNFα 40 ng/mL, IL-1β 20 ng/mL, IFNγ 10 ng/mL, 48 hours, Table 2): 40%
